Laboratory results: EP4837574A1, “USE OF DNJ OR DERIVATIVE THEREOF IN PREPARING ANTI-SENESCENCE DRUG” (dated 2026)

Tested on: human umbilical vein endothelial cells (Huvec cells)
Assay: SA-β-Gal staining, H2O2-induced senescence, pre-administration (Example 1)
Details: 30 µM, pre-administration 24 hours, then 200 µM H2O2 24 hours; compared with the H2O2 group; FIG. 9
Description: Culture conditions for human umbilical vein endothelial cells (Huvec cells) are as follows: The Huvec cells were cultured in an ECM culture medium (SclenCell) and passaged and seeded when cultured to a density of 70% to 80% in a culture dish. The cells were washed 1 time with PBS, 0.25% trypsin (Gibco) was added for digestion for 2-3 minutes, and then an ECM culture medium was added to terminate the digestion. The cells were pipetted to be detached, collected into a 15 mL centrifuge tube, and centrifuged at 1,000 rpm for 5 minutes. The supernatant was discarded, a new ECM culture medium was added, and the cells were pipetted uniformly, seeded into a 12-well or 24-well plate (at a density of 70% to 80%), and cultured in a 5% CO2 incubator at 37°C. After cell adherence, the next operation was performed.
Experimental operation and grouping are as follows: Experimental grouping: A control group (Control), a modeling group (H2O2), a DNJ drug group (H2O2 + DNJ, H2O2 + DNJ-1, H2O2 + DNJ-3a, H2O2 + DNJ-3b, H2O2 + DNJ-5a), and a positive control drug group (H2O2 + NMN) were used.
Working concentrations of each drug and modeling agent: The concentrations of DNJ, DNJ-1, DNJ-3a, DNJ-3b, DNJ-5a, and NMN were all 30 µM; and the concentration of the modeling agent, H2O2, was 200 µM.
Experimental operation: After the supernatant was discarded, the cells were washed 3 times with PBS, drug solutions formulated in advance with a culture medium were added, and the blank group and the modeling group were replaced with a blank culture medium without drugs. After culturing for 24 hours, the supernatant was discarded, the cells were washed 3 times with PBS, a blank culture medium was added in the blank group, and a culture medium containing 200 µM H2O2 was added in the modeling group and the administration group. After treatment for 24 hours, the cells were subjected to SA-β-Gal staining operation using a cellular senescence β-galactosidase staining kit (Beyotime, C0602).
The workflow for SA-β-Gal staining of the cells is as follows: For the cells cultured in a 6-well plate, a cell culture solution was sucked away, the cells were washed 1 time with PBS, and 1 mL of an SA-β-Gal staining fixative was added for fixation at room temperature for 15 minutes. For other types of culture plates, the dosages of the fixative and subsequent solutions were used in operation with reference to this ratio. The cell fixative was sucked away, and the cells were washed 3 times with PBS, for 3 minutes each time. PBS was sucked away, and 1 mL of a staining working solution was added to each well. A method for formulating the staining working solution is as follows: A β-galactosidase staining solution A (10 µL), a β-galactosidase staining solution B (10 µL), a β-galactosidase staining solution C (930 µL), and an X-Gal solution (50 µL) were used. The cells were incubated overnight at 37°C, and the 6-well plate was sealed with a parafilm or a plastic wrap to prevent evaporation. Photographing was performed for record using a 20× objective under a microfluidic live cell real-time analysis system (Thermo), cell counting was performed using ImageJ software (National Institutes of Health, v 1.8.0), and ANOVA data analysis of multiple groups (mean ± SD) was performed using Graphpad Prism software (GraphPad Software, v 9.0.0).
Compared with normal cells, senescent cells have the characteristic of high expression of SA-β-Gal. In the cellular senescence β-galactosidase staining kit using X-Gal as a substrate, a deep blue product is generated under the catalysis of senescence-specific β-galactosidase, thereby determining whether the cells are senescent.

In the case of OC[C@H]1NC[C@H](O)[C@@H](O)[C@@H]1O, the “increase in the number of senescent cells (SA-β-Gal staining-positive cells)” value is reported as “significantly inhibited”.
